In patent publication US10428062B2, “Geminal substituted aminobenzisoxazole compounds as agonists of α7-nicotinic acetylcholine receptors” (Forum Pharmaceuticals, Inc., priority 2015, dated 2019) one finds Ki data, which are given here for 33 compounds.

The chains behind the UniProt entries cited, without tags or fusion partners. Residues count along the entry.
UniProt P36544, 23-502 limits assumed: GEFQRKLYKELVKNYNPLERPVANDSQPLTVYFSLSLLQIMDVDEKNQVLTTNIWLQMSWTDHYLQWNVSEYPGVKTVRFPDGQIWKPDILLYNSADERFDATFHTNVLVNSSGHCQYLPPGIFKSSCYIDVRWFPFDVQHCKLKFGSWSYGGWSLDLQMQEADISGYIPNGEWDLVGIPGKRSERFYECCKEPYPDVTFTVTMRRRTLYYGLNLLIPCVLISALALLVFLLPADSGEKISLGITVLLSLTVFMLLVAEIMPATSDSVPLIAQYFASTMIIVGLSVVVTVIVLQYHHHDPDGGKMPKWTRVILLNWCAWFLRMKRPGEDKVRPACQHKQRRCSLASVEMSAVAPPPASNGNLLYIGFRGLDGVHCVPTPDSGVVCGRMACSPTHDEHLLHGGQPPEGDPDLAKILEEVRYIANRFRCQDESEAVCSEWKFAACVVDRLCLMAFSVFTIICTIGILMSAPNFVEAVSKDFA

Counter-ions that a name gives are not always drawn.

In this test the target is human α7 nAChR (Homo sapiens, UniProt P36544). The test can be described thus: Human α7 nAChR binding assay ([125I]-αBungarotoxin competition, Cerep). The note with it: read-out: h- α7 Ki; SH-SY5Y membranes expressing human α7 nAChR, 0.05 nM [125I]-αBgt, 120 min at 37° C.
In general, Ki refers to the equilibrium dissociation constant of an inhibitor or competing ligand from its target. Turning to `Cc1c(Cl)ccc2c(N[C@@H]3C4CCN(CC4)C3(C)C)noc12` [Compound (R)-10, (R)-6-chloro-N-(2,2-dimethylquinuclidin-3-yl)-7-methylbenzo[d]isoxazol-3-amine hydrochloride], the inhibition constant (Ki) was 180 nM.

Consider `CC1(C)[C@H](Nc2noc3c(C(F)(F)F)c(Cl)ccc23)C2CCN1CC2` [Compound (R)-14, (R)-6-chloro-N-(2,2-dimethylquinuclidin-3-yl)-7-(trifluoromethyl)benzo[d]isoxazol-3-amine hydrochloride], for which the inhibitory constant (Ki) came out at 345 nM.

Turning to `Cc1cc2onc(N[C@@H]3C4CCN(CC4)C3(C)C)c2cc1F` [Compound (R)-9, (R)—N-(2,2-dimethylquinuclidin-3-yl)-5-fluoro-6-methylbenzo[d]isoxazol-3-amine hydrochloride], the Ki was determined as 630 nM.

Take `Clc1ccc2c(N[C@@H]3C4CCN(CC4)C34CC4)noc2c1Cl` [(R)-19, (R)-6,7-dichloro-N-(1′-azaspiro[cyclopropane-1,2′-bicyclo[2.2.2]octan]-3′-yl)benzo[d]isoxazol-3-amine hydrochloride]: the Ki was 74.5 nM.

Consider `Cc1ccc2c(N[C@@H]3C4CCN(CC4)C3(C)C)noc2c1F` [Compound (R)-7, (R)—N-(2,2-dimethylquinuclidin-3-yl)-7-fluoro-6-methylbenzo[d]isoxazol-3-amine hydrochloride], for which the Ki turned out to be 80 nM.

In the case of `Clc1ccc2c(N[C@H]3C4CCN(CC4)C34CC4)noc2c1`, the Ki turned out to be 1700 nM.

As for `CC1(C)[C@H](Nc2noc3c(F)c(Cl)ccc23)C2CCN1CC2` [Compound (R)-2, (R)-6-chloro-N-(2,2-dimethylquinuclidin-3-yl)-7-fluorobenzo[d]isoxazol-3-amine hydrochloride], the inhibitory constant (Ki) came to 129 nM.

For the compound `Cc1ccc2c(N[C@@H]3C4CCN(CC4)C34CC4)noc2c1Cl` [Compound (R)-28, (R)-7-chloro-6-methyl-N-(1′-azaspiro[cyclopropane-1,2′-bicyclo[2.2.2]octan]-3′-yl)benzo[d]isoxazol-3-amine hydrochloride], the Ki came out at 140 nM.

For `FC(F)(F)c1c(Cl)ccc2c(N[C@@H]3C4CCN(CC4)C34CC4)noc12` [Compound (R)-29, (R)-6-chloro-N-(1′-azaspiro[cyclopropane-1,2′-bicyclo[2.2.2]octan]-3′-yl)-7-(trifluoromethyl)benzo[d]isoxazol-3-amine hydrochloride], the Ki amounted to 370 nM.

As for `CCOc1c(Cl)ccc2c(N[C@@H]3C4CCN(CC4)C34CC4)noc12` [Compound (R)-27, (R)-6-chloro-7-ethoxy-N-(1′-azaspiro[cyclopropane-1,2′-bicyclo[2.2.2]octan]-3′-yl)benzo[d]isoxazol-3-amine hydrochloride], the inhibition constant (Ki) came to 170 nM.

Consider `Clc1ccc2c(N[C@@H]3C4CCN(CC4)C34CC4)noc2c1` [Compound (R)-16, (R)-6-chloro-N-(1′-azaspiro[cyclopropane-1,2′-bicyclo[2.2.2]octan]-3′-yl)benzo[d]isoxazol-3-amine], for which the Ki was 74.7 nM.

As for `CC1(C)[C@H](Nc2noc3cc(Cl)ccc23)C2CCN1CC2` [Compound (R)-1, (R)-6-chloro-N-(2,2-dimethylquinuclidin-3-yl)benzo[d]isoxazol-3-amine], the Ki was 120 nM.

Consider `Cc1ccc2c(N[C@@H]3C4CCN(CC4)C3(C)C)noc2c1Cl` [Compound (R)-13, (R)-7-chloro-N-(2,2-dimethylquinuclidin-3-yl)-6-methylbenzo[d]isoxazol-3-amine hydrochloride], for which the Ki was found to be 180 nM.

As for `COc1c(Cl)ccc2c(N[C@@H]3C4CCN(CC4)C3(C)C)noc12` [Compound (R)-5, (R)-6-chloro-N-(2,2-dimethylquinuclidin-3-yl)-7-methoxybenzo[d]isoxazol-3-amine hydrochloride], the inhibition constant Ki was determined as 72 nM.

`Fc1ccc2c(N[C@@H]3C4CCN(CC4)C34CC4)noc2c1Cl` [Compound (R)-23, (R)-7-chloro-6-fluoro-N-(1′-azaspiro[cyclopropane-1,2′-bicyclo[2.2.2]octan]-3′-yl)benzo[d]isoxazol-3-amine hydrochloride]: the Ki turned out to be 230 nM.

Regarding `COc1ccc2c(N[C@@H]3C4CCN(CC4)C34CC4)noc2c1` [Compound (R)-18, (R)-6-methoxy-N-(1′-azaspiro[cyclopropane-1,2′-bicyclo[2.2.2]octan]-3′-yl)benzo[d]isoxazol-3-amine hydrochloride], the inhibition constant (Ki) was determined as 100 nM.

On to `CC(C)Oc1c(Cl)ccc2c(N[C@@H]3C4CCN(CC4)C3(C)C)noc12`, for which the Ki is 410 nM.

Turning to `CC1(C)[C@H](Nc2noc3c(Cl)c(F)ccc23)C2CCN1CC2` [Compound (R)-8, (R)-7-chloro-N-(2,2-dimethylquinuclidin-3-yl)-6-fluorobenzo[d]isoxazol-3-amine hydrochloride], the Ki stood at 195 nM.

On to `CC1(C)[C@H](Nc2noc3c(Cl)c(Cl)ccc23)C2CCN1CC2` [Compound (R)-4, (R)-6,7-dichloro-N-(2,2-dimethylquinuclidin-3-yl)benzo[d]isoxazol-3-amine hydrochloride], for which the Ki was 109 nM.

As for `Cc1ccc2c(N[C@@H]3C4CCN(CC4)C3(C)C)noc2c1` [Compound (R)-6, (R)—N-(2,2-dimethylquinuclidin-3-yl)-6-methylbenzo[d]isoxazol-3-amine hydrochloride], the Ki is 135 nM.

Consider `Cc1ccc2c(N[C@@H]3C4CCN(CC4)C34CC4)noc2c1` [Compound (R)-21, (R)-6-methyl-N-(1′-azaspiro[cyclopropane-1,2′-bicyclo[2.2.2]octan]-3′-yl) benzo[d]isoxazol-3-amine hydrochloride], for which the Ki turned out to be 235 nM.

Regarding `Fc1cc2c(N[C@@H]3C4CCN(CC4)C34CC4)noc2cc1Cl` [Compound (R)-26, (R)-6-chloro-5-fluoro-N-(1′-azaspiro[cyclopropane-1,2′-bicyclo[2.2.2]octan]-3′-yl)benzo[d]isoxazol-3-amine hydrochloride], the Ki came to 200 nM.

In the case of `Cc1c(Cl)ccc2c(N[C@@H]3C4CCN(CC4)C34CC4)noc12` [Compound (R)-25, (R)-6-chloro-7-methyl-N-(1′-azaspiro[cyclopropane-1,2′-bicyclo[2.2.2]octan]-3′-yl)benzo[d]isoxazol-3-amine hydrochloride], the Ki was determined as 90 nM.

For `CC1(C)C(Nc2noc3cc(Cl)ccc23)C2CCN1CC2` (racemic) [rac-1, 6-chloro-N-(2,2-dimethylquinuclidin-3-yl)benzo[d]isoxazol-3-amine hydrochloride], the inhibition constant Ki amounted to 110 nM.

Consider `Clc1ccc2c(NC3C4CCN(CC4)C34CC4)noc2c1` (racemic) [rac-16, 6-chloro-N-(1′-azaspiro[cyclopropane-1,2′-bicyclo[2.2.2]octan]-3′-yl)benzo[d]isoxazol-3-amine hydrochloride], for which the Ki was found to be 50 nM.

For `Fc1c(Cl)ccc2c(N[C@@H]3C4CCN(CC4)C34CC4)noc12` [Compound (R)-17, (R)-6-chloro-7-fluoro-N-(1′-azaspiro[cyclopropane-1,2′-bicyclo[2.2.2]octan]-3′-yl)benzo[d]isoxazol-3-amine hydrochloride], the Ki amounted to 99 nM.

For `CCOc1c(Cl)ccc2c(N[C@@H]3C4CCN(CC4)C3(C)C)noc12` [Compound (R)-12, (R)-6-chloro-N-(2,2-dimethylquinuclidin-3-yl)-7-ethoxybenzo[d]isoxazol-3-amine hydrochloride], the Ki amounted to 305 nM.

Take `CC(C)Oc1c(Cl)ccc2c(N[C@@H]3C4CCN(CC4)C34CC4)noc12`: the Ki turned out to be 250 nM.

With `Cc1cc2onc(N[C@@H]3C4CCN(CC4)C34CC4)c2cc1F` [Compound (R)-24, (R)-5-fluoro-6-methyl-N-(1′-azaspiro[cyclopropane-1,2′-bicyclo[2.2.2]octan]-3′-yl) benzo[d]isoxazol-3-amine hydrochloride], the Ki came to 325 nM.

Turning to `COc1c(Cl)ccc2c(N[C@@H]3C4CCN(CC4)C34CC4)noc12` [Compound (R)-20, (R)-6-chloro-7-methoxy-N-(1′-azaspiro[cyclopropane-1,2′-bicyclo[2.2.2]octan]-3′-yl)benzo[d]isoxazol-3-amine hydrochloride], the inhibitory constant (Ki) was determined as 30 nM.

Consider `CC1(C)[C@H](Nc2noc3cc(Cl)c(F)cc23)C2CCN1CC2` [Compound (R)-11, (R)-6-chloro-N-(2,2-dimethylquinuclidin-3-yl)-5-fluorobenzo[d]isoxazol-3-amine hydrochloride], for which the Ki came to 280 nM.

On to `COc1ccc2c(N[C@@H]3C4CCN(CC4)C3(C)C)noc2c1` [Compound (R)-3, (R)—N-(2,2-dimethylquinuclidin-3-yl)-6-methoxybenzo[d]isoxazol-3-amine hydrochloride], for which the inhibition constant Ki came out at 150 nM.

`Cc1ccc2c(N[C@@H]3C4CCN(CC4)C34CC4)noc2c1F` [Compound (R)-22, (R)-7-fluoro-6-methyl-N-(1′-azaspiro[cyclopropane-1,2′-bicyclo[2.2.2]octan]-3′-yl)benzo[d]isoxazol-3-amine hydrochloride]: the inhibition constant Ki worked out at 56 nM.
